The numbers were not newly measured in patent US8975232B2, “Macrocyclic kinase inhibitors and uses thereof” (President and Fellows of Harvard College, priority 2010, dated 2015), which cites them from elsewhere.

SMILES strings stand for the structures.

The series has as its system protein kinases. As to conditions: judged by similar criteria; cited from earlier work.

Consider `CNC(=O)c1cc(Oc2ccc(NC(=O)Nc3ccc(Cl)c(C(F)(F)F)c3)cc2)ccn1` [sorafenib], for which the selectivity score was 0.10.
